Like-named read-outs stand apart in the source and are kept apart here.
Molecular target: COX-1 (Homo sapiens, UniProt P23219)
Assay: biochemical

By UniProt entry, the sequences of proteins in these tests, tags left out. Residues count along the entry.
UniProt P23219, 24-599: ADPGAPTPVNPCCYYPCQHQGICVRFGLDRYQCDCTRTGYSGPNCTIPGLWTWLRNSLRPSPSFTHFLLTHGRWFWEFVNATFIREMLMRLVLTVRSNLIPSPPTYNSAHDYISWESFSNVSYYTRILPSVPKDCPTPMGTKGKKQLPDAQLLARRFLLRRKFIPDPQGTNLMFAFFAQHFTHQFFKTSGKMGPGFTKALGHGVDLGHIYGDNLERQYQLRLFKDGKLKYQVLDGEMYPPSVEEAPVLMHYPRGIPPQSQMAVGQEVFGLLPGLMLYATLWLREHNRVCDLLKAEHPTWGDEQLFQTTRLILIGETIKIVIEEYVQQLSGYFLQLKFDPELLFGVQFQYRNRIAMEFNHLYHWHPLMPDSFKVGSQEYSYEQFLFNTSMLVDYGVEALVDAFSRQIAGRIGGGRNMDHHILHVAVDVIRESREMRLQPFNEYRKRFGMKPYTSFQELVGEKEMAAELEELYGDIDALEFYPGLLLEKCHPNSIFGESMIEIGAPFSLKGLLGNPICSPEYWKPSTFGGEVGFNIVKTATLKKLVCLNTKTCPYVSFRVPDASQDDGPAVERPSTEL

SMILES	IC50	IC50 (Table III, U937, read-out: COX-1 (IC50) U937)
CS(=O)(=O)c1ccc(C2=C(Oc3ccccc3)C(=O)CC2)cc1 [Example 29, 3-(4-(Methylsulfonyl)phenyl)-2-phenoxycyclopent-2-enone]	1000 nM	–
CC1(C)OC(=O)C(Sc2ccccc2)=C1c1ccc(S(C)(=O)=O)cc1 [Example 11, 3-Phenylthio-5,5-dimethyl-4-(4-(methylsulfonyl)phenyl)-5H-furan-2-one]	–	> 30000 nM

Source: patent US5981576A, “(Methylsulfonyl)phenyl-2-(5H)-furanones as COX-2 inhibitors” (Merck Frosst Canada, Inc., priority 1998, dated 1999)
